Binding of CDR-mutated scFvs to a peptide of the spike HR2 region

Binding partner: SARS-CoV-2 spike HR2 peptide, sequence PDVDLGDISGINAS.

Each scFv is VH, a (GGGGS)3 linker, VL, as in the parent Ab-14, and differs from it in the CDRs of the heavy chain only.
VH: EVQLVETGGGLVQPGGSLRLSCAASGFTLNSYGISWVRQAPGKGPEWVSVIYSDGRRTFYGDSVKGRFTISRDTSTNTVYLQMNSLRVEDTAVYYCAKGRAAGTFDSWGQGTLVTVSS
VL: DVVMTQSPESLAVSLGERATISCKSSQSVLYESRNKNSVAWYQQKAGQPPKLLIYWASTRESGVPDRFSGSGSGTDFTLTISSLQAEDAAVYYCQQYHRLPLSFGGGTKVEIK

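The starting antibody came from a phage panning campaign against this peptide. These sequences belong to a second round, designed from the earlier measurements on random variants of the parent. Their group label is 14H_En_Gibbs (En: ensemble of fine-tuned language models; Gibbs: Gibbs sampling). AlphaSeq pools MATa yeast showing the antibodies with MATalpha yeast showing the peptide. Pairs that bind mate more often; barcode pairs of the diploids are counted by sequencing. Each replicate has its own calibration line, from reference interactions of the BCL2 family. Each pool was mated in six replicate cultures.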

Variants are written as CDR1, CDR2 and CDR3 of the heavy chain (limits as in the source). Parent: GFTLNSYGIS, VIYSDGRRTFYGDSVK, GRAAGTFDS.
The read-out is the apparent dissociation constant on a log10 scale (nM): the lower, the stronger.
"ND" marks a missing value. The strain was present, yet no cells mated with the target were sequenced in that replicate, which points to weak or no binding.

| CDR-H1 | CDR-H2 | CDR-H3 | replicates, log10 nM | control signals |
|---|---|---|---|---|
| GKQLDEYGIS | VIYADGKRTHYVENVK | GQFGSALFD | ND / ND / ND / ND / ND / ND | 0/18 |
| GFDLNEYGIS | VIYADGSRVAYANNVK | GKNNAIVSN | ND / 1.59 / ND / ND / ND / ND | 1/18 (1.62) |
| GFSIDEYGIS | VIYADGSRQVYQNKVK | GKGTGNFTT | ND / ND / ND / ND / ND / ND | 0/18 |
| GFSLDEMGIS | VIYADGQRSFYQASVK | GVNSGTVFV | ND / ND / ND / ND / ND / ND | 0/18 |
| GKDLEEYGIS | VIYADGRRSDYTDNVK | GHNGNIFMS | ND / ND / ND / ND / ND / ND | 0/18 |
| GFDLEEFGVS | VIYADGKRAAYTDSVK | GHEGAHFTV | ND / ND / ND / ND / ND / ND | 0/18 |
| GFDLDEIGIS | VIYADGRRTVYTDKVK | GANGVDIKV | 1.12 / 1.40 / 0.78 / 0.78 / 0.47 / 0.90 | 0/18 |
| GKDIEEYGIS | VIYADGMRQAYLDKVK | GNNGGSGLF | ND / ND / ND / ND / ND / ND | 0/18 |
| GFDLLEYGIS | VIYADGQRVAYFNNVK | GKNGAFFSN | ND / ND / ND / ND / ND / ND | 0/18 |
| GFNLDEYGIS | VIYADGQRTQYANDVK | GGYGGIMLS | ND / ND / ND / 3.39 / ND / ND | 0/18 |
| GFDLDEMGIS | VIYADGKRAAYQGNVK | GTNNGNFNE | ND / ND / ND / ND / ND / ND | 0/18 |
| GFGLDEYGIS | VIYADGARKAYQNYFK | GGQAGTFVN | ND / ND / ND / ND / ND / ND | 0/18 |
| GFDLNEYGIS | VIYADGRRTQYVQSVK | GKNNMVLSV | ND / ND / ND / ND / ND / ND | 0/18 |
| GFNLNEVGIS | VIYADGLRSAYVDAVK | GGVVGVDFV | ND / ND / ND / ND / ND / ND | 0/18 |
| GFGLDEYGIS | VIYADGFRAYYHDNVK | GFNYGVDIL | ND / ND / ND / ND / ND / ND | 0/18 |
| GEELEEYGIS | VIYADGRKQSYSDSFK | GAIAGNFDM | ND / ND / ND / ND / ND / ND | 0/18 |
| GFDLEDYGIS | VIYADGVRTAYSQNSK | GENGGALYI | ND / ND / ND / ND / ND / ND | 0/18 |
| GFDLKEYGIS | VIYADGSRTAYSKNFK | GEDDIMVLV | ND / ND / ND / ND / ND / ND | 0/18 |
| GFDVEDYGIS | VIYADGRRQQYAQKFK | GTIGGTFVD | ND / ND / ND / ND / ND / ND | 0/18 |
| GFDLEEYGIS | VIYADGMRQMYAQNFK | GYNSSDGTV | ND / ND / ND / ND / ND / ND | 0/18 |
| GIDLEEYGIS | VIYADGMRKAYINSVK | GGDSVTTFV | ND / ND / ND / ND / ND / ND | 0/18 |
| GFDLEEFGVS | VIYADGKRAAYTDSVK | GHEGAHFDV | ND / ND / ND / ND / ND / ND | 0/18 |
| GMSLGEYGIS | VIYADGERVAYTNNFK | GVMAGTGDV | ND / ND / ND / ND / ND / ND | 0/18 |
| GFTLSEYGIS | VIYADGVRVEYTDSVK | GQLGGSFLV | ND / ND / ND / ND / 2.73 / ND | 0/18 |
| KFDLEAYGIS | VIYADGVRTNYVDKVK | GQTGGMFDM | ND / ND / ND / ND / ND / ND | 0/18 |
| GFDLDKYGIS | VIYADGMRKSYADKVK | GRLSGTFYI | ND / ND / ND / ND / ND / ND | 0/18 |
| GFDLNEYGIS | VIYADGQRTFYHDNVK | GQLNVVVNA | ND / ND / ND / ND / ND / ND | 0/18 |
| GFVLEEYGIS | VIYADGMRTAYAEDFK | GLTGGNLHH | ND / ND / ND / ND / ND / ND | 0/18 |
| GFSLEEFGIS | VIYADGFRRAYAQDVK | GGHAGHFVV | ND / ND / ND / ND / ND / ND | 0/18 |
| GFDLNEYGIS | VIYADGFRTAYVQQVK | GQHAGSVEV | 0.82 / 0.68 / 0.19 / 0.91 / 1.20 / 0.63 | 1/18 (1.73) |
| GFNLDEYGVS | VIYADGFRVAYAESVK | GLMQFGFTI | ND / ND / ND / ND / ND / ND | 0/18 |
| GFQIEEYGIS | VIYADGDRANYDAKVK | GQIAGTLDM | ND / ND / 0.60 / -0.36 / ND / -0.09 | 0/18 |
| GFALNEYGIS | VIYADGFRRSYQDKVK | GVNVGEFSV | ND / ND / ND / ND / ND / ND | 0/18 |
| GQNLDEYGIS | VIYADGQRVSYDDPVK | GEQGGTVMV | ND / ND / ND / ND / ND / ND | 0/18 |
| GFELTEYGIS | VIYADGHRSFVTDSVK | GQNAGAFNV | -0.52 / -0.91 / 0.22 / -0.56 / -1.16 / 0.45 | 0/18 |
| GFNLDEYGIS | VIYADGYRRAYAQSVK | GYNSGTGVT | ND / ND / ND / 4.53 / ND / ND | 1/18 (2.97) |

The first 5 entries again:

| CDR-H1 | CDR-H2 | CDR-H3 | replicates, log10 nM | control signals |
|---|---|---|---|---|
| GKQLDEYGIS | VIYADGKRTHYVENVK | GQFGSALFD | ND / ND / ND / ND / ND / ND | 0/18 |
| GFDLNEYGIS | VIYADGSRVAYANNVK | GKNNAIVSN | ND / 1.59 / ND / ND / ND / ND | 1/18 (1.62) |
| GFSIDEYGIS | VIYADGSRQVYQNKVK | GKGTGNFTT | ND / ND / ND / ND / ND / ND | 0/18 |
| GFSLDEMGIS | VIYADGQRSFYQASVK | GVNSGTVFV | ND / ND / ND / ND / ND / ND | 0/18 |
| GKDLEEYGIS | VIYADGRRSDYTDNVK | GHNGNIFMS | ND / ND / ND / ND / ND / ND | 0/18 |

Empty control strains, which show no peptide, gave a signal in 1% of pairings with all heavy chain designs; the median was 2.08 and 95% of these signals were weaker than 0.84. No background was subtracted. For each scFv, signals with the empty controls are counted beside the result, with their mean in brackets.
In the paper, a design with two or fewer of six values counts as a poor binder.
Values of this round are not directly comparable with the first-round values of the same sequences.
The parent sequence was in this pool as ten entries: three were never detected, three once, and four in most replicates, with averages from 0.34 to 2.37.

Reference: Li et al. 2023, doi:10.1038/s41467-023-39022-2. File: FLAb, binding data.